This test concerns the target T1, AChE from electric eel (Electrophorus electricus, UniProt O42275).
T1 construct: purchased Sigma (St. Louis, USA)
The test is described as follows: Quantitative colorimetric microplate assay based on Ellman's method for AChE inhibitory activity. The test is classed as biochemical. The following applies: read-out: IC50, inhibition of AchE (converted). As to the method:
The tested concentrations of the samples ranged from 1.56 to 200 μg/mL. Based on the resulting curves, the IC50 values for AChE inhibition were calculated using the respective curves’ equations (Table 1).
Acetylthiocholine iodide (ATCI) and chelidonine were obtained from Fluka (Buchs, Switzerland). Fast Blue B salt (FBS) and silica gel 60 were from Merck (Darmstadt, Germany). The solvents MeOH, EtOAc, CH2Cl2, and CHCl3 were purchased from VWR (Vienna, Austria). Two different buffer systems were used (buffer A: 50 mM Tris-HCl, pH 7.9 containing 0.1% BSA; buffer B: 50 mM Tris-HCl, pH 7.9 containing 0.1 M NaCl and 0.02 M MgCl2·6H2O).
A quantitative colorimetric assay based on Ellman’s method was used to measure the AChE inhibitory activities of the substances. Briefly, in a 96-well plate, 25 μL of 15 mM ATCI, 125 μL of 3 mM DTNB in buffer B, 50 μL of buffer A, and 25 μL of the extract or the isolated substances (from 15.6 μg/mL to 2.0 mg/mL in 10% DMSO) were thoroughly mixed and the absorbance was read at 405 nm five times every 15 s. […] Then the absorbance was measured again eight times every 15 s. […] To compensate for any increase in absorbance due to the color of the extracts or spontaneous hydrolysis of the substrate, the absorbance before the addition of the enzyme was subtracted from the absorbance after adding the enzyme. […]
Background: DTNB colorimetry detects thiols as they appear.

Sequences of proteins named here, by UniProt entry; tags and fusion partners are left off. Residues count along the entry.
UniProt O42275, 24-633: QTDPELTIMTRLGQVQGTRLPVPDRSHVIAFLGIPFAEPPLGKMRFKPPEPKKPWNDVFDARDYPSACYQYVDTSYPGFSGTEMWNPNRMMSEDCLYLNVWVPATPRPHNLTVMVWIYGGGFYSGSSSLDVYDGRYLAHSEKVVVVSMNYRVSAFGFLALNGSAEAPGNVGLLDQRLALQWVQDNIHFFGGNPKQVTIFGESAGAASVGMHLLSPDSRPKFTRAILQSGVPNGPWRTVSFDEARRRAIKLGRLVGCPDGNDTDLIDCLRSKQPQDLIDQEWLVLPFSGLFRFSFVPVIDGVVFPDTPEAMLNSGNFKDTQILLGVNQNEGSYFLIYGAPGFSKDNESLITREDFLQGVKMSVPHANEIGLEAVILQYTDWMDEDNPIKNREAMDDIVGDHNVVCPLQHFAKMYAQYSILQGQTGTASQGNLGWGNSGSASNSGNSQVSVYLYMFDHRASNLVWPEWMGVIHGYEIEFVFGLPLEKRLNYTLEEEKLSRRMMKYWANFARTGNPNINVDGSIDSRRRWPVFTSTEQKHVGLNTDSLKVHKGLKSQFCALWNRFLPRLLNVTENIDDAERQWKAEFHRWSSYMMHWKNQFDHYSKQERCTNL

Like-named read-outs stand apart in the source and are kept apart here.

As for `CNC(=O)Oc1ccc2c(c1)[C@]1(C)CCN(C)[C@@H]1N2C` [Physostigmine, physostigmine, reference compound], the IC50 was 2910 nM (n=3, 25°C, 10 min incubation, tested 1.56 to 200 μg/mL) and 2910 nM (n=3, same values given in molar unit).

A word on the IC50: it is the point on the concentration scale where inhibition reaches its midpoint.

These data come from paper PMC3791940, “Compounds from Gum Ammoniacum with Acetylcholinesterase Inhibitory Activity” (Scientia Pharmaceutica, 2013).
